From patent US9174988B2, “Small molecule inhibitors of hepatitis C virus” (TRUSTEES OF BOSTON UNIVERSITY, priority 2009, dated 2015)

Test system: Huh-7.5 cells
Experiment: XTT cytotoxicity assay (CC50)
Description: This assay utilized the compound XTT (2,3-bis[2-methoxy-4-nitro-5-sulfophenyl]-2H-tetrazolium-5-carboxyanilide inner salt) with addition of an electron coupling agent phenazine methosulfate (PMS) to measure mitochondrial dehydrogenases activity in living cells, e.g., Huh-7.5 cells. Dehydrogenases in mitochondria of living cells cleave the tetrazolium ring of XTT changing the color of the solution from clear to orange. As designed, compounds that reduce cell viability will reduce activity of the mitochondrial dehydrogenases, and leave a decreased orange color in solution.
The Huh-7.5 cell line was routinely cultured in 15-cm dishes at 37 degrees C. and 95% relative humidity (RH). […]
Prior to the start of the assay 8000 cells in 100 microliter volume of colorless growth media were dispensed into each well of 96-well tissue culture-treated microtiter plates and incubated overnight at 37 degrees C. […] After equilibrating the plates to room temperature for 10 minutes, optical density at 450 nm and […] was measured on Biotek plate reader.
The percent inhibition for each compound was calculated as follows: % Inhibition=((DMSO Control−Test compound)/DMSO Control)*100, wherein Test compound is defined as wells containing test compound. […]

`COC(=O)C1=C(C(=O)OC)C2N(CCOCCN3c4ccccc4[C@]45CCC(=O)N(Cc6ccccc6)C4=NC(C(=O)OC)=C(C(=O)OC)C35)c3ccccc3[C@@]23CCC(=O)N(Cc2ccccc2)C3=N1` (some centres unmarked) gave a CC50 (Table 3) greater than 100 µM and a CC50 (hepatoma Huh7-5 cells) of less than 100 µM.
